Earlier results on one molecule are cited in PMC11070930 (The Biochemical journal, 2024).

Chains of the proteins cited; added tags and fusions are not shown.
UniProt P09874, whole entry: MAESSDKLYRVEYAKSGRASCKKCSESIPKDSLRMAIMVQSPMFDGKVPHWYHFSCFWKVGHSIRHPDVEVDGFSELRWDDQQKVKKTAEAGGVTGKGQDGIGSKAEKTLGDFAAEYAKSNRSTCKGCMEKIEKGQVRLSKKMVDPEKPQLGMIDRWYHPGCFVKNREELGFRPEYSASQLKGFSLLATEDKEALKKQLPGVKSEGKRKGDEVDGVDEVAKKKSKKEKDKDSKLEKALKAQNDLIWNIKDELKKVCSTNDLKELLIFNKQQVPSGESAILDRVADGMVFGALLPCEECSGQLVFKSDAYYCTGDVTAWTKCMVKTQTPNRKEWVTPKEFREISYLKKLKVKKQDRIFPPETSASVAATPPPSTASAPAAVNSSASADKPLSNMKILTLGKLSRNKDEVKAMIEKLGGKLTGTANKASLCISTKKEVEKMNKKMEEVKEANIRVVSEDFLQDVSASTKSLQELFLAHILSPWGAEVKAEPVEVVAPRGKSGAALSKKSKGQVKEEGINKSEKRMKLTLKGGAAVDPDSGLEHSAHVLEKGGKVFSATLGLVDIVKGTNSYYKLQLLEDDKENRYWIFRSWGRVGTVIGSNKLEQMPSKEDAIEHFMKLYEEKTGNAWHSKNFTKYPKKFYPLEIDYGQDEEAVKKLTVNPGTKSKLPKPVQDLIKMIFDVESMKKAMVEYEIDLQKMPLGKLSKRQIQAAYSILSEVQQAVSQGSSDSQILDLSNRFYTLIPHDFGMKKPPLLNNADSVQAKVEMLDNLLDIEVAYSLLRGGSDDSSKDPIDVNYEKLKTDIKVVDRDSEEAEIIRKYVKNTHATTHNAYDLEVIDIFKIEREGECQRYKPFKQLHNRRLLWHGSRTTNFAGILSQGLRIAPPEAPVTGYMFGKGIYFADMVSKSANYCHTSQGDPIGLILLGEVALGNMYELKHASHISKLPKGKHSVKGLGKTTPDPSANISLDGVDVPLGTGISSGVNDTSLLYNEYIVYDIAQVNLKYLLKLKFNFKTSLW

For this data set, the target named is PARP1 (Homo sapiens, UniProt P09874). To be noted: allosteric-based classification reported earlier; cited from earlier work.

Consider `Cn1ncnc1[C@H]1c2n[nH]c(=O)c3cc(F)cc(c23)N[C@@H]1c1ccc(F)cc1` [talazoparib], for which the “allosteric PARPi type” value is recorded as “Type II”.
